## AlphaSeq binding of Ab-14 light chain variants to a spike HR2 peptide

Binding partner: SARS-CoV-2 spike HR2 peptide, sequence PDVDLGDISGINAS.

Parent scFv Ab-14: VH joined to VL by a (GGGGS)3 linker. Changes lie in the light chain CDRs alone.
VH: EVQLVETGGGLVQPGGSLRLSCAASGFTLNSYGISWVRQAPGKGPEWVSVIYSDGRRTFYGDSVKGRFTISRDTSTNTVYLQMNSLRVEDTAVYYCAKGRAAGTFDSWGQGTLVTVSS
VL: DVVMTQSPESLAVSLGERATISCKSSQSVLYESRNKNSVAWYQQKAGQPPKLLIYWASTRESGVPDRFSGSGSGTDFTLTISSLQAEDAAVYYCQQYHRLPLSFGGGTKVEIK

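The parent was found by panning a naive human phage display library on the peptide. This is the validation round: designs drawn from the data on random variants, tested in the same kind of assay. Group labels follow the data file (Ctrl: baseline library sampled from a position-specific scoring matrix, with some repeated check sequences; Rand: our label for a block that the file lists under HC and that is probably the random mutants of the ten best first-round binders; En: ensemble of fine-tuned language models; GP: Gaussian process model; HC: hill climbing; Gen: genetic algorithm; Gibbs: Gibbs sampling; a sequence that several methods proposed may carry one label only). In AlphaSeq, yeast of one mating type display the scFv and yeast of the other type display the target. Binding brings cells together so that they mate, and sequencing counts the barcode pairs among the diploids. The ratio of observed to expected reads was calibrated, replicate by replicate, on BCL2-family standards whose Kd was known from biolayer interferometry. There are six technical replicates.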

Each variant is given by its three light chain CDRs, as the data file delimits them; those of the parent are KSSQSVLYESRNKNSVA, WASTRES, QQYHRLPLS.
Numbers give log10(Kd / nM), so 0 is 1 nM and 3 is 1 µM. Smaller is tighter.
"nd" means that the variant was in the library but no mating with the target was seen in that replicate; the authors take this as a sign of poor binding, and no number exists.
The parent sequence was in this pool as ten entries: three were never detected, three once, and four in most replicates, with averages from 0.34 to 2.37.
Empty control strains, which show no peptide, gave a signal in 4% of pairings with all light chain designs; the median was 2.64 and 95% of these signals were weaker than 1.59. No background was subtracted.
In the paper, a design with two or fewer of six values counts as a poor binder.
The range of this assay differs from that of the first round, and the authors advise against merging the two.

"log10 Kd, replicates",CDR-L1,CDR-L2,CDR-L3,group
2.60 / 0.52 / 0.36 / 0.89 / 0.45 / 0.91,NVGQLMDGQTRNRNNVA,HQSTRED,QHYHRLPLS,En_HC
0.40 / 0.31 / -0.03 / 0.29 / 0.13 / 0.28,KSLQSVPYESRNFNSVA,HASTRED,QQYHRLPLS,GP_HC
0.45 / 0.19 / 0.07 / 0.03 / 0.19 / 0.97,MVNGIMDHLSKNTNNVA,ETTTRNS,QQYDRLPLA,En_Gen
1.79 / 1.37 / 1.08 / 0.65 / 1.03 / 1.46,KSSQSWLYESRNKNLVA,GASTREN,QQYHRLPLS,Rand
0.11 / 0.07 / -0.05 / 0.25 / 0.31 / 0.15,KLSMLVLMESRNHNSVA,SANTRES,QQYHRLPLS,GP_Gibbs
0.25 / 0.32 / 0.28 / 0.17 / 0.15 / 0.34,HLSWVELYESRNKNSVA,NASTRES,QQYHRLPLS,GP_HC
2.64 / 1.98 / 2.70 / 2.35 / nd / 3.41,HMSALTLQGMRHRNSVA,QMTTREN,QQYDRLPLS,En_Gen
nd / nd / nd / nd / nd / nd,KSSQSVLYESRMKNSVA,FASTRES,YQYHRLPLS,Ctrl
1.03 / 0.55 / 0.82 / 0.99 / 0.97 / 0.72,TIGQMFLGESRNRNSVA,QASTRES,QSYDRLPLS,En_HC
0.21 / 0.05 / 0.30 / 0.34 / 0.70 / 0.58,KSSTSYLYESRNENSVA,EASTREQ,QQYHRLPLS,GP_HC
0.85 / 0.75 / 0.76 / 0.44 / 0.58 / 0.65,NMKGGLNFEDINHQAIA,SVDEREK,QQYHRLPLQ,En_Gibbs
1.17 / 1.37 / 1.28 / 0.94 / 0.72 / 1.16,TIAQSMLYVSNLKNSIA,QAETRES,QQYHRLPIS,En_HC
0.53 / 1.23 / 0.81 / 0.53 / 0.10 / 1.30,KIGHGLTTESRNRNSVA,QTETRES,QHYHRLPLS,En_HC
0.08 / -0.04 / -0.07 / -0.09 / -0.11 / 0.01,KSSMSYLYESMNKNSVA,NGSTRES,QQYHRLPLS,GP_HC
0.05 / 0.35 / -0.21 / 0.05 / 0.30 / 0.12,KLPQSWWYESRMKQSVA,NASERES,QQYHRLPLS,GP_Gibbs
1.54 / 0.68 / 1.42 / 0.32 / 1.12 / 0.78,QIYQAMHTLSQMKDNVA,DVNERGQ,QQYYRLPLS,En_Gen
nd / nd / nd / 4.60 / 2.35 / nd,KLSQYVGGESRNKSSLA,DNSTRDS,QQYERLPLS,En_HC
1.41 / 2.63 / 0.82 / 1.62 / 1.96 / 1.26,MMSMGYLGGMRARNNVA,QEETRVK,QQYHRLPLI,En_HC
0.55 / 0.87 / 0.65 / 0.45 / 0.56 / 0.70,KSPQSVLYESRNKNSVA,QASTRES,QQYHRLPLS,Ctrl
0.03 / -0.17 / 0.00 / -0.31 / 0.02 / 0.02,KSSQSTTTESRNKNSVA,AASTRES,QQYHRLPLS,Ctrl
-0.32 / -0.37 / -0.42 / -0.54 / -0.41 / -0.23,KMEQGVLYESRNKNSVA,EASVRES,QQYHRLPLS,GP_HC
0.21 / 0.36 / -0.22 / 0.21 / -0.16 / -0.01,LSSFSYLYESPNKNSVA,EASTRES,QQYHRLPLS,GP_HC
1.07 / 1.04 / 0.43 / -0.01 / 0.22 / 0.26,KLSQSVLYESRNKNSVA,EASQREM,QQYHRLPLS,GP_Gen
0.22 / 0.81 / 0.34 / 0.35 / 0.64 / 0.72,MMGMTVTMQSNEIGNVA,DMNERFA,QQYFQLPLS,En_Gibbs
0.43 / 0.13 / 0.43 / 0.31 / 0.30 / 0.46,KVSQSHLGESRNKNNIA,AASTRES,QQYHRLPLS,Ctrl
1.60 / 1.74 / 2.32 / 0.96 / 1.50 / 1.85,KSSQHVTYESYNQNSVA,SASTRES,QQYHRLPLS,Ctrl
0.61 / 0.50 / 0.38 / 0.59 / 0.38 / 0.58,MISNVMNSLTHTGNNVA,DLQERED,QQYFRLPLS,En_Gen
0.68 / 0.82 / 0.97 / 0.73 / 0.99 / 0.20,KISQSVLYESRNWNAVA,EASQRPS,QQYHRLPLS,GP_Gibbs
2.21 / 1.44 / 1.56 / 2.17 / 2.01 / 1.97,SVHFQGTTGEKNWESVA,ENSIRVE,QQYSHLPLL,En_Gibbs
-0.24 / -0.36 / -0.48 / -0.46 / -0.35 / -0.24,KLQQSVLYEDRNKNSVA,NASTRLS,QQYHRLPLS,GP_Gen

The 4 strongest on average among those seen in every replicate, once more:

CDR-L1,CDR-L2,CDR-L3,group,"log10 Kd, replicates"
KMEQGVLYESRNKNSVA,EASVRES,QQYHRLPLS,GP_HC,-0.32 / -0.37 / -0.42 / -0.54 / -0.41 / -0.23
KLQQSVLYEDRNKNSVA,NASTRLS,QQYHRLPLS,GP_Gen,-0.24 / -0.36 / -0.48 / -0.46 / -0.35 / -0.24
KSSQSTTTESRNKNSVA,AASTRES,QQYHRLPLS,Ctrl,0.03 / -0.17 / 0.00 / -0.31 / 0.02 / 0.02
KSSMSYLYESMNKNSVA,NGSTRES,QQYHRLPLS,GP_HC,0.08 / -0.04 / -0.07 / -0.09 / -0.11 / 0.01

The measurements come from Li et al. 2023 (doi:10.1038/s41467-023-39022-2) through the FLAb antibody collection.